Drawing on US12281147, this text covers Kd and Mouse T cell EC50 (pM), pSTAT3 phosflow for 44 substances.

In assay [1] the target is recombinant human IL-21R His tag (Acro Biosystems) (human) (UniProt Q9HBE5). As to the kind of experiment: BLI. For orientation: Biolayer interferometry detects binding as a change in optical thickness at a sensor tip.
The target in assay [2] is mouse IL-21R on T cells of mouse splenocytes (mouse) (UniProt Q9JHX3). Nature of the assay: cell-based or functional assay.
For assay [3], the target named is mouse IL-21R, His-tagged (BLI antigen) (mouse) (UniProt Q9JHX3). As to the kind of experiment: BLI.
Assay [4] deals with mouse IL-21R (mouse) (UniProt Q9JHX3). As to the kind of experiment: AlphaSeq yeast mating assay, pH 5 media.
Assay [5] shares this target. Nature of the assay: AlphaSeq yeast mating assay, pH 6 media.
The target is the same in assay [6]. As to the kind of experiment: AlphaSeq yeast mating assay, unbuffered media.
Assay [7] shares this target. As to the kind of experiment: AlphaSeq yeast mating assay, pH 7 media.
The target in assay [8] is wild-type mouse IL-21R (mouse) (UniProt Q9JHX3). As to the kind of experiment: AlphaSeq yeast mating, pH 6 media.
For assay [9] the target is unchanged. Nature of the assay: AlphaSeq yeast mating, pH 7 media.
Assay [10] shares this target. As to the kind of experiment: AlphaSeq yeast mating, unbuffered media.
For assay [11] the target is unchanged. As to the kind of experiment: AlphaSeq yeast mating, pH 5 media.
The target in assay [12] is mouse IL-21R (mouse) (UniProt Q9JHX3). As to the kind of experiment: AlphaSeq yeast agglutination, pH 7 media.
The target is the same in assay [13]. As to the kind of experiment: AlphaSeq yeast agglutination, pH 6 media.
Assay [14] shares this target. As to the kind of experiment: AlphaSeq yeast agglutination, unbuffered media.
For assay [15] the target is unchanged. Nature of the assay: AlphaSeq yeast agglutination, pH 5 media.

For orientation: Kd means the free concentration of one partner at which half of the binding sites on the other are occupied at equilibrium, for simple one-to-one binding. In the case of “IL-21_mouse_D37P Fc fusion protein (from UniProt Q9ES17 18-146)”, the dissociation constant (Kd) in assay [1] came to 2.5 nM. The same substance registered a Mouse T cell EC50 (pM), pSTAT3 phosflow in assay [2] of 1460 pM.

Turning to “IL-21_mouse_D26T Fc fusion protein (from UniProt Q9ES17 18-146)”, the Kd in assay [3] stood at 0.685 nM. Further, the Mouse T cell EC50 (pM), pSTAT3 phosflow in assay [2] is 35 pM.

The substance “IL-21_mouse_F69H Fc fusion protein (from UniProt Q9ES17 18-146)” yielded a Kd in [3] of 1.33 nM. Further, the Mouse T cell EC50 (pM), pSTAT3 phosflow in assay [2] turned out to be 26300 pM.

Take “IL-21_mouse_L92E Fc fusion protein (from UniProt Q9ES17 18-146)”: the Kd in [1] is 3.54 nM; in assay [3] it was 10.4 nM. In assay [2], this substance had a Mouse T cell EC50 (pM), pSTAT3 phosflow of 14700 pM.

“IL-21_mouse_I30V Fc fusion protein (from UniProt Q9ES17 18-146)”: the Kd in assay [1] stood at 8.86 nM; in assay [3], 6.15 nM. The substance also displayed a Mouse T cell EC50 (pM), pSTAT3 phosflow in assay [2] of 5.8 pM.

In the case of “IL-21m_L145K (from UniProt Q9ES17 22-144) (ligand)”, the Kd with mouse IL-21R (mouse) [4] came to 57 nM; with mouse IL-21R (mouse) [5] it was 9 nM; with mouse IL-21R (mouse) [6], 4200 nM; with mouse IL-21R (mouse) [7], 4 nM.

Turning to “IL-21m_L145Q (from UniProt Q9ES17 22-144) (ligand)”, the Kd in [8] was 9 nM; in assay [9] it was 4 nM; in assay [10] it was 2500 nM; in assay [11] it was 60 nM.

Take “IL-21m_L145W (from UniProt Q9ES17 22-144) (ligand)”: the Kd with mouse IL-21R (mouse) [12] turned out to be 6 nM; in the assay with mouse IL-21R (mouse) [13] it was 12 nM; in the assay with mouse IL-21R (mouse) [14] it was 12000 nM; in the assay with mouse IL-21R (mouse) [15] it was 130 nM.

Regarding “IL-21_mouse_I38A Fc fusion protein (from UniProt Q9ES17 18-146)”, the Kd in assay [1] worked out at 4.61 nM; in [3] it was 6.61 nM. In assay [2], the Mouse T cell EC50 (pM), pSTAT3 phosflow was 140 pM.

“IL-21m_L145R (from UniProt Q9ES17 22-144) (ligand)”: the dissociation constant (Kd) was determined as 7 nM with mouse IL-21R (mouse) [12], 13 nM with mouse IL-21R (mouse) [13], 11000 nM with mouse IL-21R (mouse) [14] and 140 nM with mouse IL-21R (mouse) [15].

As to “IL-21_mouse_D26P Fc fusion protein (from UniProt Q9ES17 18-146)”, the Kd in assay [3] was found to be 40.2 nM. The Mouse T cell EC50 (pM), pSTAT3 phosflow in assay [2] turned out to be 26 pM.

As for “IL-21m_L145A (from UniProt Q9ES17 22-144) (ligand)”, the Kd with mouse IL-21R (mouse) [4] was determined as 57 nM; with mouse IL-21R (mouse) [5], 9 nM; with mouse IL-21R (mouse) [6], 6300 nM; with mouse IL-21R (mouse) [7], 4 nM.

As to “IL-21_mouse_R27D Fc fusion protein (from UniProt Q9ES17 18-146)”, the Kd in assay [1] was 151 nM; in assay [3] it was 90.8 nM. The same substance displayed a Mouse T cell EC50 (pM), pSTAT3 phosflow in assay [2] of 345 pM.

In the case of “IL-21_mouse_R97V Fc fusion protein (from UniProt Q9ES17 18-146)”, the Mouse T cell EC50 (pM), pSTAT3 phosflow in assay [2] was 140 pM.

Regarding “IL-21_mouse_Q95S Fc fusion protein (from UniProt Q9ES17 18-146)”, the values for the Kd in [1] and in assay [3] were 9.35 nM and 6.61 nM, respectively. In assay [2], this substance displayed a Mouse T cell EC50 (pM), pSTAT3 phosflow of 29 pM.

On to “IL-21_mouse_L130W Fc fusion protein (from UniProt Q9ES17 18-146)”, for which the Kd in assay [3] stood at 12 nM.

“IL-21_mouse_Y45Q Fc fusion protein (from UniProt Q9ES17 18-146)”: the Kd in assay [1] amounted to 8.37 nM; in assay [3], 7.05 nM. The same substance registered a Mouse T cell EC50 (pM), pSTAT3 phosflow in assay [2] of 82 pM.

On to “IL-21_mouse_Y45D Fc fusion protein (from UniProt Q9ES17 18-146)”, for which the Kd in [1] came to 4.31 nM. For the same substance, the Mouse T cell EC50 (pM), pSTAT3 phosflow in [2] came to 5100 pM.

As for “IL-21m_L145Y (from UniProt Q9ES17 22-144) (ligand)”, the Kd in the assay with mouse IL-21R (mouse) [4] turned out to be 66 nM; in the assay with mouse IL-21R (mouse) [5] it was 11 nM; with mouse IL-21R (mouse) [6], 4700 nM; with mouse IL-21R (mouse) [7], 5 nM.

For the substance “IL-21_mouse_V60K Fc fusion protein (from UniProt Q9ES17 18-146)”, the Kd turned out to be 40.1 nM in assay [1] and 14 nM in assay [3]. This substance gave a Mouse T cell EC50 (pM), pSTAT3 phosflow in assay [2] of 4420 pM.

As for “IL-21_mouse_F69M Fc fusion protein (from UniProt Q9ES17 18-146)”, the results for the Kd in assay [1] and in assay [3] were 9.19 nM and 5.65 nM, respectively. For the same substance, in [2], the Mouse T cell EC50 (pM), pSTAT3 phosflow came to 6.7 pM.

“IL-21_mouse_L100S Fc fusion protein (from UniProt Q9ES17 18-146)”: the figures for the Kd in [1] and in assay [3] were 199 nM and 8.71 nM, respectively. Further, the Mouse T cell EC50 (pM), pSTAT3 phosflow in assay [2] turned out to be 10500 pM.

“IL-21m_L145D (from UniProt Q9ES17 22-144) (ligand)”: the Kd worked out at 9 nM with mouse IL-21R (mouse) [12], 18 nM with mouse IL-21R (mouse) [13], 13000 nM in the assay with mouse IL-21R (mouse) [14] and 210 nM in the assay with mouse IL-21R (mouse) [15].

On to “IL-21_mouse_I89D Fc fusion protein (from UniProt Q9ES17 18-146)”, for which the figures for the Kd in [1] and in assay [3] were 3.19 nM and 6.07 nM, respectively. This substance came in with a Mouse T cell EC50 (pM), pSTAT3 phosflow in assay [2] of 10700 pM.

In assay [2], “IL-21_mouse_P101L Fc fusion protein (from UniProt Q9ES17 18-146)” came in with a Mouse T cell EC50 (pM), pSTAT3 phosflow of 2500 pM.

“IL-21m_P22R (from UniProt Q9ES17 23-145) (ligand)”: the Kd with mouse IL-21R (mouse) [4] was 79 nM; with mouse IL-21R (mouse) [5], 10 nM; in the assay with mouse IL-21R (mouse) [6], 19000 nM; with mouse IL-21R (mouse) [7], 6 nM.

As for “IL-21m_L145H (from UniProt Q9ES17 22-144) (ligand)”, the Kd with mouse IL-21R (mouse) [4] is 130 nM; with mouse IL-21R (mouse) [5] it was 12 nM; with mouse IL-21R (mouse) [6], 5600 nM; in the assay with mouse IL-21R (mouse) [7] it was 5 nM.

For the substance “IL-21_mouse_A56D Fc fusion protein (from UniProt Q9ES17 18-146)”, the Kd amounted to 7.32 nM in [1] and 4.77 nM in assay [3].

“IL-21_mouse_N85I Fc fusion protein (from UniProt Q9ES17 18-146)” displayed a Mouse T cell EC50 (pM), pSTAT3 phosflow in assay [2] of 5250 pM.

“IL-21_mouse_A68E Fc fusion protein (from UniProt Q9ES17 18-146)” came in with a Kd in assay [3] of 4.34 nM. The substance also displayed a Mouse T cell EC50 (pM), pSTAT3 phosflow in assay [2] of 13300 pM.

On to “IL-21m_L145P (from UniProt Q9ES17 22-144) (ligand)”, for which the Kd amounted to 1200 nM in the assay with mouse IL-21R (mouse) [4], 24 nM with mouse IL-21R (mouse) [5], 73000 nM in the assay with mouse IL-21R (mouse) [6] and 13 nM with mouse IL-21R (mouse) [7].

On to “IL-21_mouse_R99L Fc fusion protein (from UniProt Q9ES17 18-146)”, for which the Kd in assay [1] was 10.5 nM; in [3], 6.59 nM. Also, the Mouse T cell EC50 (pM), pSTAT3 phosflow in assay [2] was 20 pM.

For the substance “IL-21_mouse_R27S Fc fusion protein (from UniProt Q9ES17 18-146)”, the Kd is 22.2 nM in assay [1] and 10.9 nM in [3]. In addition, in assay [2], the Mouse T cell EC50 (pM), pSTAT3 phosflow was determined as 18 pM.

For “IL-21_mouse_P57E Fc fusion protein (from UniProt Q9ES17 18-146)”, the Kd in assay [1] worked out at 105 nM; in assay [3] it was 21.6 nM.

As to “IL-21_mouse_F88D Fc fusion protein (from UniProt Q9ES17 18-146)”, the values for the Kd in assay [1] and in assay [3] were 5.94 nM and 3.26 nM, respectively. The substance further displayed a Mouse T cell EC50 (pM), pSTAT3 phosflow in [2] of 5.7 pM.

In the case of “IL-21m_L145G (from UniProt Q9ES17 22-144) (ligand)”, the Kd with mouse IL-21R (mouse) [12] was 6 nM; with mouse IL-21R (mouse) [13], 12 nM; with mouse IL-21R (mouse) [14] it was 13000 nM; with mouse IL-21R (mouse) [15], 96 nM.

“IL-21m_L145S (from UniProt Q9ES17 22-144) (ligand)”: the Kd amounted to 130 nM with mouse IL-21R (mouse) [4], 15 nM in the assay with mouse IL-21R (mouse) [5], 7400 nM with mouse IL-21R (mouse) [6] and 7 nM with mouse IL-21R (mouse) [7].

Regarding “IL-21_mouse_WT Fc fusion protein (from UniProt Q9ES17 18-146)”, the Mouse T cell EC50 (pM), pSTAT3 phosflow in [2] is 6.7 pM.

The substance “IL-21_mouse_I30R Fc fusion protein (from UniProt Q9ES17 18-146)” showed a Kd in [3] of 13.5 nM. Also, the Mouse T cell EC50 (pM), pSTAT3 phosflow in [2] is 10 pM.

Consider “IL-21_mouse_I38D Fc fusion protein (from UniProt Q9ES17 18-146)”, for which the Kd in assay [1] was 4.58 nM. The substance further gave a Mouse T cell EC50 (pM), pSTAT3 phosflow in assay [2] of 13900 pM.

The substance “IL-21_mouse_L35K Fc fusion protein (from UniProt Q9ES17 18-146)” had a Mouse T cell EC50 (pM), pSTAT3 phosflow in [2] of 11400 pM.

Turning to “IL-21m_L145F (from UniProt Q9ES17 22-144) (ligand)”, the Kd amounted to 110 nM with mouse IL-21R (mouse) [4], 10 nM with mouse IL-21R (mouse) [5], 11000 nM with mouse IL-21R (mouse) [6] and 6 nM with mouse IL-21R (mouse) [7].

Turning to “IL-21_mouse_L96M Fc fusion protein (from UniProt Q9ES17 18-146)”, the Kd in [1] amounted to 4.52 nM; in assay [3], 6.11 nM. Further, the Mouse T cell EC50 (pM), pSTAT3 phosflow in assay [2] came to 76 pM.

In the case of “IL-21_mouse_R98A Fc fusion protein (from UniProt Q9ES17 18-146)”, the Kd in assay [3] is 42.7 nM. Moreover, the Mouse T cell EC50 (pM), pSTAT3 phosflow in assay [2] amounted to 60 pM.
